Results from paper PMC4775085 (ACS chemical neuroscience, 2015).
Counter-ions that a name gives are not always drawn.

The chains behind the UniProt entries cited, without tags or fusion partners. Where a name states a change or a piece, a line headed by the entry shows the natural chain unless it says otherwise.
UniProt P56524: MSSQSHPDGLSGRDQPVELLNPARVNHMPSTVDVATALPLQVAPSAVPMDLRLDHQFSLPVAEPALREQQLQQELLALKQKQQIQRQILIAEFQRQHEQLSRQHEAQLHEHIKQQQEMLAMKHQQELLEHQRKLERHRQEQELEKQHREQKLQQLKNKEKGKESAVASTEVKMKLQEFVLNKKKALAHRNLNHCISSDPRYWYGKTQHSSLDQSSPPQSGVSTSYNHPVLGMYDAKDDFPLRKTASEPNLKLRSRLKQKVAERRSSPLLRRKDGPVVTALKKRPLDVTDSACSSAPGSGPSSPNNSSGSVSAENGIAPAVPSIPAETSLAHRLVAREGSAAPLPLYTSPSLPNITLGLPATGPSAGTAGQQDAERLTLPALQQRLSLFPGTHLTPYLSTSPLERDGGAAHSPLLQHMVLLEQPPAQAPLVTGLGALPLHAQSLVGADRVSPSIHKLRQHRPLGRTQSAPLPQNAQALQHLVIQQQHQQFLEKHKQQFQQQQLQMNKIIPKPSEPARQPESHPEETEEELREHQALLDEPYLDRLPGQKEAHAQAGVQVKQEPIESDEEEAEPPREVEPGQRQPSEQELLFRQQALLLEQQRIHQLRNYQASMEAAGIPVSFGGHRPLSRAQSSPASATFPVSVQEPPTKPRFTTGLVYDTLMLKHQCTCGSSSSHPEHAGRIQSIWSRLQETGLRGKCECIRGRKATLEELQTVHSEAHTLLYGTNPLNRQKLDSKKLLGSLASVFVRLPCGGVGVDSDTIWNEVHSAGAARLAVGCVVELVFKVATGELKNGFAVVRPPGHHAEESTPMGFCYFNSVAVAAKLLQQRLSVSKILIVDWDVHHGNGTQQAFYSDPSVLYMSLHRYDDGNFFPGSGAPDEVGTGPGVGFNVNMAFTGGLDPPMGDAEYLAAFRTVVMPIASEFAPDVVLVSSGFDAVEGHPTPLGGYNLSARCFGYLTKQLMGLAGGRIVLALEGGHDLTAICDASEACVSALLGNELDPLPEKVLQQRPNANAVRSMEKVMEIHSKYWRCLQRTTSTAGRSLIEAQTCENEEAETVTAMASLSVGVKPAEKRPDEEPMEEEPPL

Molecular target: HDAC4 (Homo sapiens, UniProt P56524)
Test: HDAC4 enzymatic inhibition assay

For CN1CCc2c(c3ccccc3n2Cc2ccc(C(=O)NO)cc2)C1 [TubaA HCl, tubastatin A, reference compound], the IC50 was 1640 nM.
